The target of one assay is BIRC2 (Homo sapiens, UniProt Q13490). The assay is described as follows: Western blot of BIRC2 content in human T cells. The note with it: EV-3 10 μM, DMF 50 μM, BPK-21 20 μM, BPK-25 10 μM, AT406 1 μM; 24 h.
Another assay deals with T1, BIRC3 (Homo sapiens, UniProt Q13489).
T1 construct: endogenous in cells; host or cells: primary human T cells
The assay is described as follows: Western blot of BIRC3 content in human T cells. The conditions noted are these: EV-3 10 μM, DMF 50 μM, BPK-21 20 μM, BPK-25 10 μM, AT406 1 μM; 24 h. It is filed as cell-based.

Amino acid sequences for entries named in this document (tags omitted).
UniProt Q13490, whole entry: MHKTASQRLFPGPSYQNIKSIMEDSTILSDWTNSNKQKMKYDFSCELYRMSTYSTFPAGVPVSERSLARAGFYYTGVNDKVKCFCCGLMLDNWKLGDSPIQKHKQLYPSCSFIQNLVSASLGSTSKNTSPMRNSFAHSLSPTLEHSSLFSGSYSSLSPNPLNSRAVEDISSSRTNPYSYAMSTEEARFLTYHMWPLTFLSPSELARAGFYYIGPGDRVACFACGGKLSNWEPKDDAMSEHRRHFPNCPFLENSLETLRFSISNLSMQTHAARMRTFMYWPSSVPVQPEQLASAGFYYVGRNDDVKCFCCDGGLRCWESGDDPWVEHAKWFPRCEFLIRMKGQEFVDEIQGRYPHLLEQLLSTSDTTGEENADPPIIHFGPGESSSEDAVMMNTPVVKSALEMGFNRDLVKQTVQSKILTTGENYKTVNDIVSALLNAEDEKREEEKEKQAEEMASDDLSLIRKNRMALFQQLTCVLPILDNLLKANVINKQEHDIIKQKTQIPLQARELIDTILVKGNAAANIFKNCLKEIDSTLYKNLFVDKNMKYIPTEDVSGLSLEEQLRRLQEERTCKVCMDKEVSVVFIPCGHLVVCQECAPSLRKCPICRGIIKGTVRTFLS
UniProt Q13489, whole entry: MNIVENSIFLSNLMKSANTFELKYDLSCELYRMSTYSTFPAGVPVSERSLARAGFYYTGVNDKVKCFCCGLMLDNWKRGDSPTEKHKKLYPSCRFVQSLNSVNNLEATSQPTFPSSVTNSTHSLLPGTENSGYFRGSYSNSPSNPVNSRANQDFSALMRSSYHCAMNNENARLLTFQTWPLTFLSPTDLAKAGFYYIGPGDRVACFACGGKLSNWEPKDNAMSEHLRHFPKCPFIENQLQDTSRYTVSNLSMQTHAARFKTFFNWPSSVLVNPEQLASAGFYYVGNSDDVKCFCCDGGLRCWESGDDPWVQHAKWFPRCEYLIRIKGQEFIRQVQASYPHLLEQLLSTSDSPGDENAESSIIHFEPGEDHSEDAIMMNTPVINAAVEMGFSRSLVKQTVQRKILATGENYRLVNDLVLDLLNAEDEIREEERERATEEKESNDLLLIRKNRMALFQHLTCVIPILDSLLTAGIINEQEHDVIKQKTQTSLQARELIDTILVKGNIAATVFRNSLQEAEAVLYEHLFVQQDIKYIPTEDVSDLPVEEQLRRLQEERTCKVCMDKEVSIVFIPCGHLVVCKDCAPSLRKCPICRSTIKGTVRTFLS

In the case of `CN[C@@H](C)C(=O)N[C@H]1CN(C(=O)CC(C)C)CC[C@H]2CC[C@@H](C(=O)NC(c3ccccc3)c3ccccc3)N2C1=O` [AT406, reference compound], on BIRC2, the BIRC2 content entry is recorded as “loss of BIRC2”. For the same compound, the BIRC3 content result at BIRC3 is recorded as “but not BIRC3”.
As for `C=CC(=O)N(Cc1cccc(Cl)c1Cl)c1ccc(Oc2ccccc2)c(C(F)(F)F)c1` [BPK-21], the BIRC2 content result at BIRC2 is listed as “but not”. Moreover, the BIRC3 content result on BIRC3 is given as “but not”.
`C=CC(=O)N(Cc1cccc(Cl)n1)c1ccc(C(=O)Nc2ccccc2)nc1` [BPK-25]: on BIRC2, the BIRC2 content entry is reported as “but not”. Further, on BIRC3, the BIRC3 content entry is on record as “but not”.
For `COC(=O)/C=C/C(=O)OC` [DMF, reference compound], at BIRC2, the BIRC2 content result is recorded as “but not”. Also, the BIRC3 content result on BIRC3 is “but not”.
As for `O=C(CCl)N1CCN(S(=O)(=O)c2ccc(-c3ccncc3)cc2)CC1` [EV-3], on BIRC2, the BIRC2 content entry is reported as “reductions”. Besides, on BIRC3, the BIRC3 content result is given as “reductions”.

These data come from patent US20240131032A1, “AN ACTIVITY-GUIDED MAP OF ELECTROPHILE-CYSTEINE INTERACTIONS IN PRIMARY HUMAN IMMUNE CELLS” (The Scripps Research Institute, priority 2019, published 2024).
